Test results as given in ChEMBL document CHEMBL5321287, “Discovery, Synthesis, and Evaluation of Novel Dual Inhibitors of a Vascular Endothelial Growth Factor Receptor and Poly(ADP-Ribose) Polymerase for BRCA Wild-Type Breast Cancer Therapy” (J Med Chem, 2023).

Columns and labels:
[1] = test system: MDA-MB-231; assay: Induction of HR DNA repair in human MDA-MB-231 cells xenografted in BALB/c nude mouse assessed as decrease in FOXM1 level at 50 mg/kg, po for 14 days in presence of 1:1 of compound:Pazopanib by Western blot analysis; format: functional, organism-based; conditions: time 14.0 day
[2] = test system: MDA-MB-231; assay: Induction of HR DNA repair in human MDA-MB-231 cells xenografted in BALB/c nude mouse assessed as decrease in BRCA1 level at 50 mg/kg, po for 14 days in presence of 1:1 of compound:Pazopanib by Western blot analysis; format: functional, organism-based; conditions: time 14.0 day
[3] = test system: MDA-MB-231; assay: Antimigratory activity in human MDA-MB-231 cells assessed as upregulation of E-cadherin level at 4 uM in presence of 1:1 of compound:Pazopanib by DAPI staining based immunofluorescence analysis; format: functional, cell-based
[4] = test system: MDA-MB-231; assay: Antimigratory activity in human MDA-MB-231 cells xenografted in lungs of BALB/c nude mouse assessed as increase in E-cadherin level in lungs at 50 mg/kg administered once a day measured after 14 days in presence of 1:1 of compound:Pazopanib by IHC analysis; format: functional, organism-based; conditions: time 14.0 day
[5] = test system: MDA-MB-231; assay: Antimigratory activity in human MDA-MB-231 cells xenografted in lungs of BALB/c nude mouse assessed as decrease in MMP2 level in lungs at 50 mg/kg administered once a day measured after 14 days in presence of 1:1 of compound:Pazopanib by IHC analysis; format: functional, organism-based; conditions: time 14.0 day
[6] = test system: MDA-MB-231; assay: Induction of DNA damage in human MDA-MB-231 cells assessed as increase in comet tail length at 4 uM in presence 1:1 of Pazopanib by alkaline comet assay; format: functional, cell-based
[7] = test system: MDA-MB-231; assay: Antiinvasive activity against human MDA-MB-231 cells at 4 uM incubated for 12 hrs in presence of 1:1 of compound:Pazopanib by transwell assay; format: functional, cell-based
[8] = test system: MDA-MB-231; assay: Induction of DNA damage in human MDA-MB-231 cells xenografted in BALB/c nude mouse assessed as increase in gamma-H2AX level at 50 mg/kg, po for 14 days in presence of 1:1 of compound:Pazopanib by Western blot analysis; format: functional, organism-based; conditions: time 14.0 day
[9] = test system: MDA-MB-231; assay: Antimetastatic activity against human MDA-MB-231 cells xenografted in lungs of BALB/c nude mouse assessed as decrease in lung metastatic nodules at 50 mg/kg administered once a day measured after 14 days in presence of 1:1 of compound:Pazopanib by H and E staining based analysis; format: functional, organism-based; conditions: time 14.0 day
[10] = test system: MCF7; assay: Induction of hypoxia in human MCF7 cells assessed as upregulation of HIF-1alpha level at 4 uM incubated for 2 days in presence 1:1 of Pazopanib by Western blot analysis; format: functional, cell-based; conditions: time 2.0 day
[11] = test system: MCF7; assay: Induction of HR DNA repair in human MCF7 cells assessed as decrease in RAD51 level at 4 uM incubated for 48 hrs in presence of 1:1 of compound:Pazopanib by DAPI staining based immunofluorescence analysis; format: functional, cell-based
[12] = test system: MCF7; assay: Induction of apoptosis in human MCF7 cells assessed as decrease in Bcl-2 level at 4 uM incubated for 2 days in presence of 1:1 of compound:Pazopanib by immunoblot analysis; format: functional, cell-based; conditions: time 2.0 day
[13] = test system: MCF7; assay: Induction of apoptosis in human MCF7 cells assessed as increase in Bax level at 4 uM incubated for 2 days in presence of 1:1 of compound:Pazopanib by immunoblot analysis; format: functional, cell-based; conditions: time 2.0 day
[14] = test system: MDA-MB-231; assay: Induction of DNA damage in human MDA-MB-231 cells assessed as increase in gamma-H2AX level at 4 uM incubated for 48 hrs in presence of 1:1 of compound:Pazopanib by DAPI staining based immunofluorescence analysis; format: functional, cell-based
[15] = test system: MCF7; assay: Antimigratory activity in human MCF7 cells assessed as upregulation of E-cadherin level at 4 uM in presence of 1:1 of compound:Pazopanib by DAPI staining based immunofluorescence analysis; format: functional, cell-based
[16] = test system: MDA-MB-231; assay: Antimigratory activity in human MDA-MB-231 cells assessed as upregulation of E-cadherin level at 4 uM incubated for 2 days in presence of 1:1 of compound:Pazopanib by immunoblot analysis; format: functional, cell-based; conditions: time 2.0 day

Measured: Activity

O=C(c1cc(Cc2n[nH]c(=O)c3ccccc23)ccc1F)N1CCN(C(=O)C2CC2)CC1 [OLAPARIB]
active: [1] | [2] | [3] | [4] | [5] | [6] | [7] | [8] | [9] | [10] | [11] | [12] | [13] | [14] | [15] | [16]

Activity calls are given as the source filed them.
